The record followed here is ChEMBL document CHEMBL1144008, “Synthesis, nitric oxide release, and anti-leukemic activity of glutathione-activated nitric oxide prodrugs: Structural analogues of PABA/NO, an anti-cancer lead compound” (Bioorg Med Chem, 2008).

pIC50: −log10 of the molar value.

A word on the pIC50: it is the IC50 on a negative log10 scale, so that one unit is a factor of ten. A high value points to a small IC50.

For the assay, the system named is HL-60. The assay can be described thus: Antiproliferative activity against human HL60 cells by MTS assay. The class given is functional, cell-based. In short, it runs like this:
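HL-60 human myeloid leukemia cells grown in RPMI 1640 with 10% FBS, 37 °C, 5% CO2. Seeded 10,000 cells/100 µL; compounds (DMSO stocks serially diluted in PBS, final DMSO 0.5%) added 24 h after plating. Viable cells read by MTS after 3 days. IC50 from nonlinear fit of absorbance vs concentration to a Hill-slope equation.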

In turn, `CN(C)/[N+]([O-])=N/Oc1cc(OC(=O)c2ccc([N+](=O)[O-])cc2)c([N+](=O)[O-])cc1[N+](=O)[O-]` gave a pIC50 of less than 4.60.
